Reference: US20260022116A1, “IMIDAZOPYRIDINE COMPOUNDS, PREPARATION THEREOF AND THERAPEUTIC USES THEREOF” (SANOFI, priority 2022, published 2026)
pIC50: −log10 of the molar value. Read-outs that look alike come from different tables or passages of the source.

The chains behind the UniProt entries cited, without tags or fusion partners. Residues count along the entry.
UniProt Q13164, 55-347 limits assumed: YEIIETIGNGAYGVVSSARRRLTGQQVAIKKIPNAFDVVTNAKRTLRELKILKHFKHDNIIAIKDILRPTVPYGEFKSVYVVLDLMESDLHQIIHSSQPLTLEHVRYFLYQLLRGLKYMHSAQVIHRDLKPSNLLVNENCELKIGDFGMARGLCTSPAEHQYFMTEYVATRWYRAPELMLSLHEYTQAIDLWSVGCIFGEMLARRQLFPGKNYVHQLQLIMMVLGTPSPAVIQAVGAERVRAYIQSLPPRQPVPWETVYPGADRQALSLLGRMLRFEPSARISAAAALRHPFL

What was measured:
ERK5 [1] = target: T1, ERK5 (Homo sapiens, UniProt Q13164); assay: biochemical
ERK5 [2] = target: T1, ERK5

SMILES: Nc1cc(OC(F)(F)F)ccc1C(=O)N1CCC(c2c(F)cnc3[nH]c(C4CCOCC4)nc23)CC1 [Example 173, [2-amino-4-(trifluoromethoxy)phenyl]-[4-(6-fluoro-2-tetrahydropyran-4-yl-3H-imidazo[4,5-b]pyridin-7-yl)-1-piperidyl]methanone]
- pIC50 (ERK5 [1]): 8.10
- pIC50 (ERK5 [2]): 8.22

SMILES: COC(C)(C)c1nc2c(C3CCN(C(=O)c4ccc(OC(F)(F)F)cc4N)CC3)c(F)cnc2[nH]1 [Example 447, [2-amino-4-(trifluoromethoxy)phenyl]-[4-[6-fluoro-2-(1-methoxy-1-methyl-ethyl)-3H-imidazo[4,5-b]pyridin-7-yl]-1-piperidyl]methanone]
- pIC50 (ERK5 [1]): 7.09
- pIC50 (ERK5 [2]): 8.05
